The subject of this test is Botulinum neurotoxin type F light chain protease (Clostridium botulinum). As to the kind of experiment: inhibition of botulinum toxin F LC protease – biochemical, flow cytometry, cherry pick 1, confirmation (AID 602140). The following applies: multiplex microsphere protease cleavage assay, at 10 µM, hits give high values. A general note: A flow cytometer gives signals particle by particle.

Only a part is listed here, and it is no random draw. Some tests of the compounds listed are not included; inactive here does not mean inactive elsewhere. Calls of active or inactive are those of the source. The rule behind the calls is not given here.

As usually defined, the inhibition is how much of the control response was suppressed. `CN1[C@@H]2CC[C@H]1CC(OC(=O)C(O)(c1ccccc1)c1ccccc1)C2` (stereo partly specified): the inhibition was inactive: 0.4%.

(Values after PubChem BioAssay AID602140 (NMMLSC, 2011).)
